This is an account of results in patent US20210115124A1 (Genentech, published 2021).

Chains of the proteins cited; added tags and fusions are not shown. A line that says so, or that is headed by a name, gives the form on record, which may keep a tag or linker.
UniProt P15692, other isoform, or with tags, fused parts or gaps limits assumed: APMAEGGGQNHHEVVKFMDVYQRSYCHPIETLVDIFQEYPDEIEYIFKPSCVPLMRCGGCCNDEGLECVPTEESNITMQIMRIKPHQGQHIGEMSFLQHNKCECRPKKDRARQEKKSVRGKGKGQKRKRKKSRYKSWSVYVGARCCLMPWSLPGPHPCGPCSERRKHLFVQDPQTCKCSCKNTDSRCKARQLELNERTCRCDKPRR

Assay [1] addresses T1, human VEGF (hVEGF) (human, UniProt P15692 181-395).
T1 construct: also called VEGF-A
Kind of assay: SPR single-cycle.

In assay [2] the target is T1, human VEGF (hVEGF). Kind of assay: SPR. (In general: Surface plasmon resonance follows binding to a sensor surface in real time, without labels.)
Assay [3] deals with T1, human VEGF (hVEGF). Kind of assay: SPR. This is another data set of the same source.
Assay [4] addresses VEGF (as used in the HUVEC migration assay) (Homo sapiens (Human), UniProt P15692 181-395). As to the kind of experiment: cell-based or functional assay.
In assay [5] the target is T1, human VEGF (hVEGF). As to the kind of experiment: SPR single-cycle. The source holds these as a separate data set.
The target of assay [6] is T1, human VEGF (hVEGF). As to the kind of experiment: BIACORE SPR on immobilised hVEGF; label beside the mutation on the structure of the VEGF-bound G6 Fab (PDB 2FJG).

Numbering of substitutions follows the chain as printed. Names and notes keep the numbering of the source.
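For Fold change (relative to G6.31) in this document: fab variants injected over hVEGF immobilized on a CM5 chip (Biacore T200), threefold dilution series from 0.02 to 50 nM, kinetics fitted with a 1:1 Langmuir model.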

B1: G6.31 HC-G8E (Fab, name in Kabat numbering, V domains shown)
VH: EVQLVESEGGLVQPGGSLRLSCAASGFTISDYWIHWVRQAPGKGLEWVAGITPAGGYTYYADSVKGRFTISADTSKNTAYLQMNSLRAEDTAVYYCARFVFFLPYAMDYWGQGTLVTVSS
VL: DIQMTQSPSSLSASVGDRVTITCRASQDVSTAVAWYQQKPGKAPKLLIYSASFLYSGVPSRFSGSGSGTDFTLTISSLQPEDFATYYCQQGYGNPFTFGQGTKVEIK
notes: Fab
Usually Kd stands for the constant that tells how readily two partners part at equilibrium. Lower therefore signals a tighter complex. In general, koff refers to the first-order rate constant of dissociation. A low value points to slow dissociation. As usually defined, the kon is a measure of how fast the partners come together. High values mean fast association, low ones slow association. With B1, in the assay with human VEGF (hVEGF) [1], the “Fold change (relative to G6.31)” value was determined as 2.5 fold, binding was characterised by a dissociation constant (Kd) of 693 pM, the koff is 0.000455 s⁻¹ and the kon was 657000 M⁻¹ s⁻¹.

B2: G6.31 HC-S5E (Fab, V domains shown)
VH: B1 VH with V5E, E8G
VL: B1 VL
In the case of B2, in the assay with human VEGF (hVEGF) [1], the “Fold change (relative to G6.31)” value came to 3 fold, binding was put at a Kd of 576 pM, the koff was 0.000454 s⁻¹ and the on-rate (kon) stood at 788000 M⁻¹ s⁻¹.

B3: G6.31 AARR (Y58R.N94A.N82aR.F83A) (Fab, V domains shown)
VH: B1 VH with E8G, Y59R, N84R
VL: DIQMTQSPSSLSASVGDRVTITCRASQDVSTAVAWYQQKPGKAPKLLIYSASFLYSGVPSRFSGSGSGTDFTLTISSLQPEDAATYYCQQGYGAPFTFGQGTKVEIKR
notes: Fab; also called N94A.F83A.N82aR.Y58R
In the case of B3, in the assay with human VEGF (hVEGF) [2], the “Fold improved (relative to WT)” value was 6.6 fold, the Kd was 80 pM, the dissociation rate constant (koff) amounted to 0.00032 s⁻¹ and the association rate constant (kon) was 4e+06 M⁻¹ s⁻¹. Also, in the assay with human VEGF (hVEGF) [3], the Kd is 135 pM, the koff turned out to be 0.000301 s⁻¹ and the kon amounted to 2.22e+06 M⁻¹ s⁻¹. In addition, the “IC50 relative to G6.31, VEGF-induced HUVEC migration” value in assay [4] was determined as 0.5 fold.

B4: G6.31 LC-S10E (Fab, V domains shown)
VH: B1 VH with E8G
VL: B1 VL with S10E
notes: Fab
On to B4, for which, in the assay with human VEGF (hVEGF) [1], the “Fold change (relative to G6.31)” value is 1 fold, the Kd amounted to 1630 pM, the koff turned out to be 0.000429 s⁻¹ and the kon amounted to 263000 M⁻¹ s⁻¹.

B5: G6.31 HC-Q105E (Fab, name in Kabat numbering, V domains shown)
VH: B1 VH with E8G, Q112E
VL: B1 VL
notes: Fab
As for B5, in the assay with human VEGF (hVEGF) [1], the “Fold change (relative to G6.31)” value stood at 0.4 fold, binding was characterised by a dissociation constant (Kd) of 4240 pM, the koff stood at 0.000463 s⁻¹ and the kon was 109000 M⁻¹ s⁻¹.

B6: G6.31 LC-S7E (Fab, V domains shown)
VH: B1 VH with E8G
VL: B1 VL with S7E
notes: Fab
Regarding B6, in the assay with human VEGF (hVEGF) [1], the “Fold change (relative to G6.31)” value came out at 1.4 fold, the Kd was determined as 1240 pM, the koff worked out at 0.000443 s⁻¹ and the kon was found to be 356000 M⁻¹ s⁻¹.

B7: G6.31 HC-Q13M (Fab, name in Kabat numbering, V domains shown)
VH: B1 VH with E8G, Q13M
VL: B1 VL
notes: Fab
Take B7: in the assay with human VEGF (hVEGF) [5], the “Fold difference (relative to G6.31)” value was determined as 3.8 fold; the affinity, expressed as Kd, was 410 pM; the koff is 0.000519 s⁻¹; the kon was determined as 1.26e+06 M⁻¹ s⁻¹.

B8: G6.31 HC-S7E (Fab, name in Kabat numbering, V domains shown)
VH: B1 VH with S7E, E8G
VL: B1 VL
notes: Fab
As for B8, in the assay with human VEGF (hVEGF) [1], the “Fold change (relative to G6.31)” value was 3.4 fold, binding was put at a Kd of 501 pM, the koff was determined as 0.000381 s⁻¹ and the on-rate constant (kon) came out at 761000 M⁻¹ s⁻¹.

B9: G6.31 HC-T107E (Fab, name in Kabat numbering, V domains shown)
VH: B1 VH with E8G, T114E
VL: B1 VL
notes: Fab
B9: in the assay with human VEGF (hVEGF) [1], the “Fold change (relative to G6.31)” value was 1.2 fold, the Kd was 1430 pM, the koff is 0.000594 s⁻¹ and the kon worked out at 416000 M⁻¹ s⁻¹.

B10: G6.31 HC-L11R (Fab, name in Kabat numbering, V domains shown)
VH: B1 VH with E8G, L11R
VL: B1 VL
notes: Fab
As to B10, in the assay with human VEGF (hVEGF) [1], the “Fold change (relative to G6.31)” value was found to be 3.5 fold, the Kd amounted to 488 pM, the koff is 0.000435 s⁻¹ and the kon worked out at 890000 M⁻¹ s⁻¹.

B11: G6.31 LC-A13R (Fab, V domains shown)
VH: B1 VH with E8G
VL: B1 VL with A13R
notes: Fab
Take B11: in the assay with human VEGF (hVEGF) [1], the “Fold change (relative to G6.31)” value was determined as 1.2 fold, binding was characterised by a dissociation constant (Kd) of 1410 pM, the koff was 0.000458 s⁻¹ and the kon is 325000 M⁻¹ s⁻¹.

B12: G6.31 LC-S9Q (Fab, V domains shown)
VH: B1 VH with E8G
VL: B1 VL with S9Q
notes: Fab
As to B12, in the assay with human VEGF (hVEGF) [5], the “Fold difference (relative to G6.31)” value turned out to be 3.5 fold, the Kd was determined as 440 pM, the off-rate (koff) is 0.000655 s⁻¹ and the kon amounted to 1.47e+06 M⁻¹ s⁻¹. Also, the “fold change in binding affinity (Kd) compared to G6.31” value (“fold change in binding affinity (Kd)” below) with human VEGF (hVEGF) [6] came to 4 x.

B13: G6.31 HC-G16E (Fab, name in Kabat numbering, V domains shown)
VH: B1 VH with E8G, G16E
VL: B1 VL
notes: Fab
With B13, in the assay with human VEGF (hVEGF) [1], the “Fold change (relative to G6.31)” value was 2.7 fold, the Kd came out at 622 pM, the koff was 0.000454 s⁻¹ and the kon was determined as 730000 M⁻¹ s⁻¹.

B14: G6.31 LC-S12M (Fab, V domains shown)
VH: B1 VH with E8G
VL: B1 VL with S12M
notes: Fab
Regarding B14, in the assay with human VEGF (hVEGF) [5], the “Fold difference (relative to G6.31)” value was determined as 2 fold; the affinity, expressed as Kd, was 760 pM; the off-rate (koff) worked out at 0.000679 s⁻¹; the kon came to 894000 M⁻¹ s⁻¹. Besides, the “fold change in binding affinity (Kd)” value in the assay with human VEGF (hVEGF) [6] was found to be 2 x.

B15: G6.31 LC-T22D (Fab, V domains shown)
VH: B1 VH with E8G
VL: B1 VL with T22D
notes: Fab
As to B15, in the assay with human VEGF (hVEGF) [5], the “Fold difference (relative to G6.31)” value was 2.1 fold, the Kd is 720 pM, the koff came out at 0.000348 s⁻¹ and the kon was 487000 M⁻¹ s⁻¹.

B16: G6.31 LC-S9E (Fab, V domains shown)
VH: B1 VH with E8G
VL: B1 VL with S9E
notes: Fab
With B16, in the assay with human VEGF (hVEGF) [1], the “Fold change (relative to G6.31)” value was determined as 4.6 fold, the equilibrium dissociation constant (Kd) amounted to 368 pM, the koff was 0.000457 s⁻¹ and the on-rate constant (kon) was 1.24e+06 M⁻¹ s⁻¹.

B17: G6.31 HC-V2E (Fab, name in Kabat numbering, V domains shown)
VH: B1 VH with V2E, E8G
VL: B1 VL
notes: Fab
Regarding B17, in the assay with human VEGF (hVEGF) [1], the “Fold change (relative to G6.31)” value stood at 1.3 fold, the Kd came out at 1320 pM, the koff turned out to be 0.000395 s⁻¹ and the kon amounted to 300000 M⁻¹ s⁻¹.

B18: G6.31 LC-T20E (Fab, V domains shown)
VH: B1 VH with E8G
VL: B1 VL with T20E
notes: Fab
Turning to B18, in the assay with human VEGF (hVEGF) [1], the “Fold change (relative to G6.31)” value was 0.9 fold, the Kd stood at 1860 pM, the koff was found to be 0.000457 s⁻¹ and the kon worked out at 246000 M⁻¹ s⁻¹.

B19: G6.31 LC-M4Q (Fab, V domains shown)
VH: B1 VH with E8G
VL: B1 VL with M4Q
notes: Fab
Regarding B19, in the assay with human VEGF (hVEGF) [5], the “Fold difference (relative to G6.31)” value turned out to be 1.4 fold, binding was put at a Kd of 1110 pM, the koff amounted to 0.000657 s⁻¹ and the kon came to 593000 M⁻¹ s⁻¹. Besides, the “fold change in binding affinity (Kd)” value with human VEGF (hVEGF) [6] was 1 x.

B20: G6.31 LC-A13E (Fab, V domains shown)
VH: B1 VH with E8G
VL: B1 VL with A13E
notes: Fab
As for B20, in the assay with human VEGF (hVEGF) [1], the “Fold change (relative to G6.31)” value came out at 2.1 fold, the Kd is 817 pM, the koff is 0.000394 s⁻¹ and the on-rate constant (kon) was found to be 483000 M⁻¹ s⁻¹.

B21: G6.31 LC-S7Q (Fab, V domains shown)
VH: B1 VH with E8G
VL: B1 VL with S7Q
notes: Fab
In the case of B21, in the assay with human VEGF (hVEGF) [5], the “Fold difference (relative to G6.31)” value came out at 1.7 fold, the Kd worked out at 920 pM, the koff is 0.000671 s⁻¹ and the kon worked out at 731000 M⁻¹ s⁻¹.

B22: G6.31 LC-Q3A (Fab, V domains shown)
VH: B1 VH with E8G
VL: B1 VL with Q3A
notes: Fab
On to B22, for which, in the assay with human VEGF (hVEGF) [5], the “Fold difference (relative to G6.31)” value worked out at 1.7 fold, the dissociation constant Kd was determined as 920 pM, the koff came to 0.000359 s⁻¹ and the kon stood at 389000 M⁻¹ s⁻¹.

B23: G6.31 LC-S12E (Fab, V domains shown)
VH: B1 VH with E8G
VL: B1 VL with S12E
notes: Fab
In the case of B23, in the assay with human VEGF (hVEGF) [1], the “Fold change (relative to G6.31)” value worked out at 0.7 fold, the Kd was 2270 pM, the koff amounted to 0.000458 s⁻¹ and the kon was 201000 M⁻¹ s⁻¹.

B24: G6.31 LC-G16K (Fab, V domains shown)
VH: B1 VH with E8G
VL: B1 VL with G16K
notes: Fab
As to B24, in the assay with human VEGF (hVEGF) [5], the “Fold difference (relative to G6.31)” value worked out at 1.6 fold; the affinity, expressed as Kd, was 970 pM; the koff was found to be 0.000356 s⁻¹; the kon turned out to be 367000 M⁻¹ s⁻¹. For the same molecule, in the assay with human VEGF (hVEGF) [1], the “Fold change (relative to G6.31)” value came to 1.2 fold, the Kd was 1430 pM, the koff is 0.000446 s⁻¹ and the kon was determined as 311000 M⁻¹ s⁻¹.

B25: G6.31 HC-L11E (Fab, name in Kabat numbering, V domains shown)
VH: B1 VH with E8G, L11E
VL: B1 VL
notes: Fab
For the molecule B25, in the assay with human VEGF (hVEGF) [1], the “Fold change (relative to G6.31)” value was determined as 1.9 fold, the Kd was determined as 901 pM, the koff came to 0.000507 s⁻¹ and the kon came to 563000 M⁻¹ s⁻¹.
